Experiments:
[1] = test system: A172 human glioblastoma cells; assay: A172 kynurenine cell based assay; details: 500 μM L-Trp, 48 h, absorbance at 490 nm
[2] = test system: SK-OV-3 ovary adenocarcinoma cells; assay: SKOV3 kynurenine cell based assay; details: SK-OV-3 cells, IFNγ 500 ng/ml, 500 μM L-Trp, 48 h, absorbance at 490 nm
human TDO = human TDO (Homo sapiens (Human), UniProt P48775); assay: TDO coupled biochemical assay; details: coupled with kynurenine formamidase, 330 μM L-tryptophan, fluorescence 475 nm/530 nm
human IDO = human IDO (Homo sapiens (Human), UniProt P14902); assay: IDO coupled biochemical assay; details: coupled with kynurenine formamidase, 45 μM L-tryptophan, fluorescence 475 nm/530 nm

Sequences of proteins named here, by UniProt entry; tags and fusion partners are left off.
UniProt P48775, whole entry: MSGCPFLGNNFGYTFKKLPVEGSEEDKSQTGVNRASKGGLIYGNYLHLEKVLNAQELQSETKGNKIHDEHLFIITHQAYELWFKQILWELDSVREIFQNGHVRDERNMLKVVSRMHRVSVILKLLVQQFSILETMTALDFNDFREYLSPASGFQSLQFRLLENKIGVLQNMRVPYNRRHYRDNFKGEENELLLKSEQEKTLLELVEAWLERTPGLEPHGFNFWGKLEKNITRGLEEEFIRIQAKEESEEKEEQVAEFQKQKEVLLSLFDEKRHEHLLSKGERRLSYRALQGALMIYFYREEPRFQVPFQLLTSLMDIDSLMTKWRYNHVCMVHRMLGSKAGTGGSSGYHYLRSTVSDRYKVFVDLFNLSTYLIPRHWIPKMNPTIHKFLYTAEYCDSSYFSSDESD
UniProt P14902, whole entry: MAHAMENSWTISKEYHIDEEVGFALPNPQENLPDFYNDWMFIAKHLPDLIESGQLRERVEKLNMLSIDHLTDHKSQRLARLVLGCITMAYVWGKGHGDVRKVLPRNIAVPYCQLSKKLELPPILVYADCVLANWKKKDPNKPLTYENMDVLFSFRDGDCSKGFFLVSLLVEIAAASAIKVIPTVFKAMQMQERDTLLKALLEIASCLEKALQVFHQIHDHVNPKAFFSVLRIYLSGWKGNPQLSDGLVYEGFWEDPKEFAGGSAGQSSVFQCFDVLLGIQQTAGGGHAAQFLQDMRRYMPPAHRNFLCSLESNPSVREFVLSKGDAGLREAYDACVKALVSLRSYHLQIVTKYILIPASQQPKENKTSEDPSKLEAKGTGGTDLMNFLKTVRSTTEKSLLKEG

A172 Kynurenine cell based assay pIC50 [1] | SKOV3 Kynurenine cell based assay pIC50 [2] | hTDO biochemical assay pIC50 (human TDO) | hIDO biochemical assay pIC50 (human IDO) | Compound
5.8 | <4.0 | 5.4 | <3.9 | CS(=O)(=O)N1CC=C(c2c[nH]c3ccccc23)CC1
6.8 | <4.0 | 5.2 | <3.9 | NS(=O)(=O)N1CC=C(c2c[nH]c3cc(F)ccc23)CC1

— US10155972B2, “Screening method” (IOmet Pharma Ltd., priority 2013, dated 2018)
